Molecular target: recombinant IGF1 receptor fused to one fragment of beta-galactosidase, over expressed on cells (DISCOVERX PathHunter IGF1R Bioassay Kit, Catalog No. 93-0505Y1) (UniProt P08069)
Test: cell-based or functional assay

The chains behind the UniProt entries cited, without tags or fusion partners. Residues count along the entry.
UniProt P08069, 31-1367: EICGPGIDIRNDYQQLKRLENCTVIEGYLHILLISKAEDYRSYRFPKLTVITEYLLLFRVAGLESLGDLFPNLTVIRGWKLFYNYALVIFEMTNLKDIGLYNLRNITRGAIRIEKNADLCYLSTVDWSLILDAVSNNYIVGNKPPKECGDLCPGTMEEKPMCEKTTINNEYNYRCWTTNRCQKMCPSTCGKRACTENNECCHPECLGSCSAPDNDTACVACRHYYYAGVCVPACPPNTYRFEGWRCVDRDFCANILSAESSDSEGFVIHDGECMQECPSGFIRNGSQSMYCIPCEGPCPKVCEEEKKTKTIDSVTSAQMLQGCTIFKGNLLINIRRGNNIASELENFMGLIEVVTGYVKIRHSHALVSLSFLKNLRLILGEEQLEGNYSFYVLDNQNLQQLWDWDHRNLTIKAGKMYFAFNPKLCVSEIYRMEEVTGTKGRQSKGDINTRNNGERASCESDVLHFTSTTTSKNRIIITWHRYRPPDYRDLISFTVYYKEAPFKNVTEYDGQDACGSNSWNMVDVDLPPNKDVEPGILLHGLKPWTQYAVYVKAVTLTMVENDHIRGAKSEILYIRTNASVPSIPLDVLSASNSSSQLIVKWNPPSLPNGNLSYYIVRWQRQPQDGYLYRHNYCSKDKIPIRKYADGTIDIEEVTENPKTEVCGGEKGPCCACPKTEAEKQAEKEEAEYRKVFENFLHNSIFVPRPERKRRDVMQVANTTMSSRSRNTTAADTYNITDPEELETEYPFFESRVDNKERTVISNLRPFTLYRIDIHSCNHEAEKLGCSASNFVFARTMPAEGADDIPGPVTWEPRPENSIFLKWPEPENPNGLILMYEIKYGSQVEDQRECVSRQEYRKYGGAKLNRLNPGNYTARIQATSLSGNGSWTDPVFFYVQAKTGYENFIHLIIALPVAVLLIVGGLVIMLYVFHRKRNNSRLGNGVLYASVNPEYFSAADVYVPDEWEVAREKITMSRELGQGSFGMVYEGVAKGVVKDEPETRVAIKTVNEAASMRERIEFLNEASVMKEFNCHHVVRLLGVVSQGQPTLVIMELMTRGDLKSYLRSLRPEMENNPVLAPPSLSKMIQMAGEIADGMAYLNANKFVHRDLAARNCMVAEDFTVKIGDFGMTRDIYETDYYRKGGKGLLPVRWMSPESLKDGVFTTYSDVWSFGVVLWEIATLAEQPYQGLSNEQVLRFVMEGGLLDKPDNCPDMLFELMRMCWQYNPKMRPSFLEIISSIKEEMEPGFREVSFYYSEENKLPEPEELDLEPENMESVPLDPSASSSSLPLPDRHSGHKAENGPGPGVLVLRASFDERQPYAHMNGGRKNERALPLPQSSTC

Agonist (IGF1) of Table 8 (ligand) gave an Average EC50 (PathHunter IGF1R bioassay) of 0.83 nM, an Average fold reduction, as compare to Increlex of 1.8 fold and an EC50, CBA#1 (PathHunter IGF1R bioassay) of 0.67 nM. For the same substance, the EC50, CBA#2 (PathHunter IGF1R bioassay) was 0.7 nM, the EC50, CBA#3 (PathHunter IGF1R bioassay) was 0.96 nM and the EC50, CBA#5 (PathHunter IGF1R bioassay) was 1.01 nM.

From patent publication US20210008172A1
